Test results reported in US9617269B2.

Protein sequences, listed by entry. Tags and fused reporters are not part of them. Lines headed by an entry give the natural chain unless they say otherwise; changes in a name come on top.
UniProt O76083: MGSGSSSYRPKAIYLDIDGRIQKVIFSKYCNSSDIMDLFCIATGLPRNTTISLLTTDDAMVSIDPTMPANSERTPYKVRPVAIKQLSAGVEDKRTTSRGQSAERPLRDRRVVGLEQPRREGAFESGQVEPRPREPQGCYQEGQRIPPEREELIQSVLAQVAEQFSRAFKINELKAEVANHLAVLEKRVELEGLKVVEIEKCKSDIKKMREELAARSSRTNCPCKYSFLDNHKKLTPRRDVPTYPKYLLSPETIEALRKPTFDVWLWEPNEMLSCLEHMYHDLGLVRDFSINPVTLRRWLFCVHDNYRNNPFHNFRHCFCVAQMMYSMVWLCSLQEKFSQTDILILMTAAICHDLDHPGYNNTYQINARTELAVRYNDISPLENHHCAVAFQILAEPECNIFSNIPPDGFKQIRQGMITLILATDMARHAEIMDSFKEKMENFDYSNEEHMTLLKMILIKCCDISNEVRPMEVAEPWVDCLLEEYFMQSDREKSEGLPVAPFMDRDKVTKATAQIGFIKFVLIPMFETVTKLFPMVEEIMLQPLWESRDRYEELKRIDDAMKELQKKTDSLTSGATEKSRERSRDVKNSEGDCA

Biological target: phosphodiesterase IX (Homo sapiens (Human), UniProt O76083)
Experiment: Inhibition activity to the phosphodiesterase IX
Type: biochemical
Details: concentration of the inhibitor when the inhibition rate reaches 50%

IC50: 6 nM
SMILES: CC(Nc1nc2c(cnn2C2CCCC2)c(=O)[nH]1)c1ccc(Cl)cc1 (stereo not shown) [WYQ-46]
